Values quoted from earlier work in patent publication US20070105848A1 (priority 2005, published 2007).

System: adult humans
Details: recommended doses, oral or i.v.

In the case of `CN(C)c1ccc2nc3ccc(N(C)C)cc3[s+]c2c1.[Cl-]` [Methylene blue, 3,7-bis(dimethylamino)-phenothiazin-5-ium chloride], the side effects is listed as “blue urine, occasional nausea, anemia and fever”.
